These are literature values, as cited in PMC4516925, “Three Peptide Modulators of the Human Voltage-Gated Sodium Channel 1.7, an Important Analgesic Target, from the Venom of an Australian Tarantula” (Toxins, 2015).

Chains of the proteins cited; added tags and fusions are not shown.
UniProt Q15858, whole entry: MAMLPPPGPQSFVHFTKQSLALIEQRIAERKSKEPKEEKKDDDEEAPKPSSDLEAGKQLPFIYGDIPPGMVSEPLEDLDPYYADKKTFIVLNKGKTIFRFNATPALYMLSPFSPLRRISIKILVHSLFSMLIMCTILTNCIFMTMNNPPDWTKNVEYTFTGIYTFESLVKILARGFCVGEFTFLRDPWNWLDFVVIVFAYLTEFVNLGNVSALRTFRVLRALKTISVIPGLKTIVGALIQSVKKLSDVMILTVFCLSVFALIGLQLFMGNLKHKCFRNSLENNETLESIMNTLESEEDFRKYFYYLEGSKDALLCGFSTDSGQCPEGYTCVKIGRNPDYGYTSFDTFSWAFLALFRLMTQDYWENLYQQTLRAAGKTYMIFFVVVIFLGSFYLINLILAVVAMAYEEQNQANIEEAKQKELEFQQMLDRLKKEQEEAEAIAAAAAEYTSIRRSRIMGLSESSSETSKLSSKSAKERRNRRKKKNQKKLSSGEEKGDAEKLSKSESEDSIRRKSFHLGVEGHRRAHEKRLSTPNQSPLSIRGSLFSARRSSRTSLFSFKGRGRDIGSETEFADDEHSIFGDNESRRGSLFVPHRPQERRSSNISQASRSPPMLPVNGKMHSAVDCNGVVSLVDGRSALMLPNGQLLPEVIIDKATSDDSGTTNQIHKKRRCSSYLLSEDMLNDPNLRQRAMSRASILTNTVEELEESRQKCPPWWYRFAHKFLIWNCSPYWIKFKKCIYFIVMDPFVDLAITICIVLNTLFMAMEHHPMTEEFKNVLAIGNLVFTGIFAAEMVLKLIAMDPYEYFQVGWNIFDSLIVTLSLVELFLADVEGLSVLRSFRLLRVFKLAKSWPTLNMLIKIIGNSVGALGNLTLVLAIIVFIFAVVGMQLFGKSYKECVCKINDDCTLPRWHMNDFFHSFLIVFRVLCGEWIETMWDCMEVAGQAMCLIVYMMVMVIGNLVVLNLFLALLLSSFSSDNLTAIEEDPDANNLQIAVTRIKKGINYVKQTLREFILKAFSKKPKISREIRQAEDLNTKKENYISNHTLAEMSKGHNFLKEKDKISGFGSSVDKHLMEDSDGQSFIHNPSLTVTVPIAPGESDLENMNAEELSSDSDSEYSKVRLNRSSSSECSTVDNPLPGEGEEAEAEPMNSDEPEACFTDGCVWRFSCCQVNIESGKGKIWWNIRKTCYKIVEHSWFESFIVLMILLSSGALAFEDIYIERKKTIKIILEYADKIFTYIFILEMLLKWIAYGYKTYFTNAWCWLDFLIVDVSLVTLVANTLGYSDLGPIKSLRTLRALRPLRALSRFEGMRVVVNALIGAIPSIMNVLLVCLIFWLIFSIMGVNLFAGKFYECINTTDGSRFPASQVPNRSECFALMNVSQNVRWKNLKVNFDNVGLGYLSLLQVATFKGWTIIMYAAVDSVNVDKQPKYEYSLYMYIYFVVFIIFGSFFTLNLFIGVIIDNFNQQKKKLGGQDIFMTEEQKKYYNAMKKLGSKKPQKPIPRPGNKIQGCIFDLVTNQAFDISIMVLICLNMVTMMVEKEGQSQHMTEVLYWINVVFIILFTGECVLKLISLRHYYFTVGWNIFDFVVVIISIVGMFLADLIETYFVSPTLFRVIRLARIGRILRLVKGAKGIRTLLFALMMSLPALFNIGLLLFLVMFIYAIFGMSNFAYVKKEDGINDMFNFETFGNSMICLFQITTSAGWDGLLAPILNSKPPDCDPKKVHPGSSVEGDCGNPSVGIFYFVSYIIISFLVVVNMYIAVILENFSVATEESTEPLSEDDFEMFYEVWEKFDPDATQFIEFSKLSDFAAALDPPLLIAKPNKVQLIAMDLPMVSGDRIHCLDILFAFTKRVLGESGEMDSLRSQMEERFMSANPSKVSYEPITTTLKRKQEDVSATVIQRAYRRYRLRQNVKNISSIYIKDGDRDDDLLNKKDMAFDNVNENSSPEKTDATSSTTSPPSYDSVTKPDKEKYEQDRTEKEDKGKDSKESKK

This data set deals with T1, hNaV1.7 (Homo sapiens, UniProt Q15858).
T1 construct: expressed in transfected cells; host or cells: Xenopus oocytes (cRNA injection)
The settings on record: cited from earlier work.

Take “ProTx-II: most potent blocker of hNaV1.7 within NaSpTx family 3”: the IC50 was 0.3 nM.

A word on the IC50: it is the concentration that inhibits the measured activity by half.
